For part of these data: Most of the strong results are listed elsewhere, so they are rarer here than in the full data. The entries are a selection whose mix differs from that of the whole data set.

By UniProt entry, the sequences of proteins in these tests, tags left out. Where a name states a change or a piece, a line headed by the entry shows the natural chain unless it says otherwise.
UniProt Q13555: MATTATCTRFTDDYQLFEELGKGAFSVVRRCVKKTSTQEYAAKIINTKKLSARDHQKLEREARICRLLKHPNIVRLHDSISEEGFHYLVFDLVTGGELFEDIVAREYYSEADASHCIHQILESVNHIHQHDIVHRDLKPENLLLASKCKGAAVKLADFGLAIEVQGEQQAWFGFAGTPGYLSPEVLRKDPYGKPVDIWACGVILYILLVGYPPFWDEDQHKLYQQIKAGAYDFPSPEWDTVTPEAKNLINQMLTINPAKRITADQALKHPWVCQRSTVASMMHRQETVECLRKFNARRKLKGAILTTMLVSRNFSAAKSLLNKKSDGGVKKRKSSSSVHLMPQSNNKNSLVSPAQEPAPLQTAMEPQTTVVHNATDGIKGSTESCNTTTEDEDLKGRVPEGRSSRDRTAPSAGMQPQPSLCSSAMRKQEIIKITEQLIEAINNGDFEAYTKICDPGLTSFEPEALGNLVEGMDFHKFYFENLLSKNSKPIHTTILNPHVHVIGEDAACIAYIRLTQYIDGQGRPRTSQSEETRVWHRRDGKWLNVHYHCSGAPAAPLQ
UniProt P27361, whole entry: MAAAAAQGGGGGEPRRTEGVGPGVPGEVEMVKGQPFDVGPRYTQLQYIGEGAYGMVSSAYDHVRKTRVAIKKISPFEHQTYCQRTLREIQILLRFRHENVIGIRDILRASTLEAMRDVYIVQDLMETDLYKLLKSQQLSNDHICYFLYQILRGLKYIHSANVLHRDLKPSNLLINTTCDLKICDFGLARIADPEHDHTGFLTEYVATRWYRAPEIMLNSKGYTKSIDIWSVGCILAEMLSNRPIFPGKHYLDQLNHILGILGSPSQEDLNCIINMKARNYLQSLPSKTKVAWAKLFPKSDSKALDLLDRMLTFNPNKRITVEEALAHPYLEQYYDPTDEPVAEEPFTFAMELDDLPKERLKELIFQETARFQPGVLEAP

In assay [1] the target is Calcium/calmodulin-dependent protein kinase type II subunit gamma (Homo sapiens) (UniProt Q13555). The note with it: at 1 µM.
Assay [2] concerns the target T1, Discoidin domain-containing receptor 2 (Homo sapiens) (UniProt Q16832).
T1 sequence (whole entry): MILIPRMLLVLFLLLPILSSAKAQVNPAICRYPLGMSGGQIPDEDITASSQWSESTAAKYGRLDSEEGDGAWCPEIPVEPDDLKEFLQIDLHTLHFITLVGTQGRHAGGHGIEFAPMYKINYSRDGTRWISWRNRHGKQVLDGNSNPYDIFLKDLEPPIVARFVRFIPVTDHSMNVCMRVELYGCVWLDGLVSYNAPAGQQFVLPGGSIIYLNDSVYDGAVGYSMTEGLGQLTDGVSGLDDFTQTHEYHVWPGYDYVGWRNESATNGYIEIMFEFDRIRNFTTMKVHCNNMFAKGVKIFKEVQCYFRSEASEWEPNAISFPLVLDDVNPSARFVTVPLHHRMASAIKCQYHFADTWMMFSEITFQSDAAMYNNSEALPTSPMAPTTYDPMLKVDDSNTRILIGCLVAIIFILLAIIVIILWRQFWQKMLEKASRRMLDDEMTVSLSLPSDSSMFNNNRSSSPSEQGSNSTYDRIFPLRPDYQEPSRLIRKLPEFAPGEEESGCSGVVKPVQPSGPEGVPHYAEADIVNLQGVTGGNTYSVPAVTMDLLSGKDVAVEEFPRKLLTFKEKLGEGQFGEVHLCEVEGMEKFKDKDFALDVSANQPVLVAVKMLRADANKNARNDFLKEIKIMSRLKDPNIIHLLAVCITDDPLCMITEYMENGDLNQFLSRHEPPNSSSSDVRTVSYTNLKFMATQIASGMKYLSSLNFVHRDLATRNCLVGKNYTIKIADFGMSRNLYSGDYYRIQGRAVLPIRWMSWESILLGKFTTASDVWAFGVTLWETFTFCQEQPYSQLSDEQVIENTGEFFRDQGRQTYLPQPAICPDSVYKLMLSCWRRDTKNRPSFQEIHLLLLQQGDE
The note with it: at 1 µM.

The target of assay [3] is Mitogen-activated protein kinase 3 (Homo sapiens) (UniProt P27361). The note with it: at 10 µM.

Turning to `O=C(Nc1nc2ccccc2n1CCN1CCOCC1)c1cccc([N+](=O)[O-])c1`, the residual activity in assay [1] stood at 102%.
As for `NC(=O)Nc1sc(-c2ccc(F)cc2)cc1C(N)=O`, the figures for the residual activity in assay [2] and in assay [3] were 77% and 38%, respectively.

For the origin of these results see ChEMBL document CHEMBL2218924, “A broad activity screen in support of a chemogenomic map for kinase signalling research and drug discovery” (Biochem J, 2013).
